Laboratory results as given in patent US5075338A (priority 1986, dated 1991).

System: rabbit pulmonary artery, tyramine-induced noradrenaline release
Settings: in vitro, 30 minutes equilibration

Compound: CC(Cc1ccccc1)NCCBr (stereo not shown)
- IC50, inhibition of noradrenaline releasing effect of tyramine: can not be given
